By UniProt entry, the sequences of proteins in these tests, tags left out.
UniProt P31645, whole entry: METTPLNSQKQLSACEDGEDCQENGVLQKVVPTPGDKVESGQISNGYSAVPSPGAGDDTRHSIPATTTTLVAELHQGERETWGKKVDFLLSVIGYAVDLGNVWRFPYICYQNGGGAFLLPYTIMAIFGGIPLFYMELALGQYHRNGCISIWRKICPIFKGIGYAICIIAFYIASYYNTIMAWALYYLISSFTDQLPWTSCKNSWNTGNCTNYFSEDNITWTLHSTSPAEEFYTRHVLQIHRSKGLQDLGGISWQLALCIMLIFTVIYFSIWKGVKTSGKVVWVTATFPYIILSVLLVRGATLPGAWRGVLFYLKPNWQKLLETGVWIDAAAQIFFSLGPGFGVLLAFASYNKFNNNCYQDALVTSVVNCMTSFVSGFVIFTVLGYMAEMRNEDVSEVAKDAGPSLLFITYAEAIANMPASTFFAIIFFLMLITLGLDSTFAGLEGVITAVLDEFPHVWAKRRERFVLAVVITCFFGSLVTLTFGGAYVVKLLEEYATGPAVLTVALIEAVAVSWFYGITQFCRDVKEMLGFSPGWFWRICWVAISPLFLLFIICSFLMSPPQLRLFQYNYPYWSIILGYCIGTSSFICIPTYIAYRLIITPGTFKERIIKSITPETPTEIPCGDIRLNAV

In patent US20230084144A1, “THERAPEUTIC COMBINATIONS OF DRUGS AND METHODS OF USING THEM” (ConSynance Therapeutics, Inc., priority 2020, published 2023):

Target: T1, Transporter, Serotonin (5-Hydroxytryptamine) (SERT) (Homo sapiens, UniProt P31645)
T1 construct: host or cells: HEK-293 cells
Assay: Radioligand binding, Transporter, Serotonin (SERT) (Eurofin Discovery 274030)
Settings: 10 nM compound

Clc1ccc(C2CNCc3cc(-c4ccc5ncnn5c4)ccc32)cc1Cl (stereo not shown) [Formula I, 7-([1,2,4]triazolo[1,5-a]pyridin-6-yl)-4-(3,4-dichlorophenyl)-1,2,3,4-tetrahydroisoquinoline]
inhibition at 0.01 µM: 59%
